Data: US7078585B1, “Bacterial cell component-unresponsive model mouse” (Japan Science and Technology Agency, priority 1999, dated 2006)

Legend:
YAC-1 targeting cells = experiment: NK lytic activity against 51Cr-labelled YAC-1 target cells; type: cell-based, mouse; conditions: splenic cells of MyD88 knockout mice, 24 hours
Protocol: It has been well known that IL-18 enhances lytic activity of NK cells. Splenic […] from MyD88 knockout mice of the present invention and wild-type littermates were cultured in the presence or absence of 20 ng/ml of IL-18 (Hayashibara Biochemical Laboratories, Inc.) for 24 hours with ^51Cr-labelled mouse lymphoma cells (hereinafter “YAC-1”) targeting cells. 4 hours later, released ^51Cr in supernatants were counted by a gamma counter.

thymocytes = experiment: Thymocyte (T cell) proliferation with IL-1 costimulation ([3H]thymidine); type: cell-based, mouse; conditions: 20 ng/ml IL-2 with 10 ng/ml PMA or 2.5 μg/ml Con A
Protocol: 1×10^5 of thymocytes of the MyD88 knockout mice of the present invention were cultured in 96-well plates for 72 hours with mixtures containing 2 μg/ml of phytohemagglutinin (PHA), which is a costimulant of IL-1 for T cell proliferation, 2.5 μg/ml of concanavalin A (ConA), or 2 ng/ml of IL-2 respectively, and 100 U/ml of IL-1β (Genzyme), and T cells were proliferated. Proliferation of T cells were examined by measuring [^3H] amount of [^3H] thymidine taken into the cells.
Further, thymocytes of MyD88 knockout mice of the present invention were cultured with 10 ng/ml of phorbol 12-myristate 13-acetate paramethoxyamphetamine (PMA) or 2.5 μg/ml of Con A in the presence of 20 ng/ml of IL-2 (Genzyme) in a same manner as above-mentioned, and enhancement of proliferation was examined. There was no difference between thymocytes of MyD88 knockout mice of the present invention and of wild-type littermates in their proliferation as to the reaction of IL-2 and PMA or Con A (see FIG. 3).

Q: IL-2: IL-2 (Genzyme), cytokine was tested. Which “lytic activity to YAC-1 targeting cells” value (YAC-1 targeting cells) did it give?
A: lytic activity was also enhanced

Q: And the “proliferation of thymocytes, MyD88 knockout versus wild-type littermates” value (thymocytes)?
A: no difference
